The record followed here is BindingDB's records for doi:10.1002/1098-2396(20001215)38:4 (University of North Texas, 2000).

Sequences of proteins named here, by UniProt entry; tags and fusion partners are left off.
UniProt P61169, whole entry: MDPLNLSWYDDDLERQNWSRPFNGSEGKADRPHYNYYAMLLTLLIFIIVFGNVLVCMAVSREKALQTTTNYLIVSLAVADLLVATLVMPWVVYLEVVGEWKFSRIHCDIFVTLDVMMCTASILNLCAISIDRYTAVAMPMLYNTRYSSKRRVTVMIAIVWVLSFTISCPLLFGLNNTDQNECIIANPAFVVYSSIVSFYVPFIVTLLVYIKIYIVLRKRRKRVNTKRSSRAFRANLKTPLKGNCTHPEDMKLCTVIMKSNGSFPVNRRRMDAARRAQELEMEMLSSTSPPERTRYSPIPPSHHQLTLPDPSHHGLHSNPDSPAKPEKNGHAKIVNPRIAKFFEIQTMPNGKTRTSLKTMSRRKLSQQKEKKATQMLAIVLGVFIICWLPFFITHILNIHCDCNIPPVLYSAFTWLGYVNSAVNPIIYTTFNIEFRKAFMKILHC

Molecules are shown by their SMILES.

The assay concerns the target D(2) dopamine receptor (Rattus norvegicus, UniProt P61169).

A word on the Ki: it is a measure of affinity in units of concentration, obtained from inhibition or displacement. Read a low Ki as tighter binding. Regarding `OCCN1CCN(CC/C=C2/c3ccccc3Sc3ccc(C(F)(F)F)cc32)CC1` [Fluphenthixol], the affinity, expressed as Ki, was 250 pM.
